For assay [1], the target named is T1, Substance-K receptor (Homo sapiens, UniProt P21452). Put plainly: Inhibition of NK2 receptor (unknown origin).
Assay [2] has as its target T1, Substance-K receptor. Put plainly: Binding affinity to NK2 receptor (unknown origin) assessed as inhibition constant.

Protein sequences, listed by entry. Tags and fused reporters are not part of them.
UniProt P21452, whole entry: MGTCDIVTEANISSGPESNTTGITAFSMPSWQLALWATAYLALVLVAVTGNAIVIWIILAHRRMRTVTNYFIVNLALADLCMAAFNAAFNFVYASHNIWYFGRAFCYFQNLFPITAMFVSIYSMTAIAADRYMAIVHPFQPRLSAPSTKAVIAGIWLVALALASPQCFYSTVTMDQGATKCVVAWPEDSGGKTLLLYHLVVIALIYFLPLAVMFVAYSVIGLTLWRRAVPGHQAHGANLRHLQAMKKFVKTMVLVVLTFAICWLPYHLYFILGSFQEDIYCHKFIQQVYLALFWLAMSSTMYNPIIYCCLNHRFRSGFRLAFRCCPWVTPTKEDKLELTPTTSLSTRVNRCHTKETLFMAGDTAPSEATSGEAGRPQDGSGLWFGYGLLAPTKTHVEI

`CCCC[C@H](NC(=O)[C@H](CC(C)C)NC(=O)CNC(=O)[C@@H](NC(=O)[C@H](Cc1ccccc1)NC(=O)[C@H](CO)NC(=O)[C@@H](N)CC(=O)O)C(C)C)C(N)=O`: at Substance-K receptor [1], the IC50 – broadly, the concentration at which inhibition is half-maximal – came to 10 nM. The Ki (usually the dissociation constant of the complex between target and ligand, obtained from inhibition or displacement) at Substance-K receptor [2] is 5.6 nM.

These data come from ChEMBL document CHEMBL5715956, “Selective Targeting of Bromodomains of the Bromodomain-PHD Fingers Family Impairs Osteoclast Differentiation” (ACS Chem Biol, 2017).
